In EP2505659A1, “Methods for the identification of dioxygenase interacting molecules and for the purification of dioxygenase proteins” (CELLZOME AG, priority 2011, dated 2012):
Where a name gives a salt, the structure may show the parent alone.

Protein sequences, listed by entry. Tags and fused reporters are not part of them.
UniProt Q9C0B1, whole entry: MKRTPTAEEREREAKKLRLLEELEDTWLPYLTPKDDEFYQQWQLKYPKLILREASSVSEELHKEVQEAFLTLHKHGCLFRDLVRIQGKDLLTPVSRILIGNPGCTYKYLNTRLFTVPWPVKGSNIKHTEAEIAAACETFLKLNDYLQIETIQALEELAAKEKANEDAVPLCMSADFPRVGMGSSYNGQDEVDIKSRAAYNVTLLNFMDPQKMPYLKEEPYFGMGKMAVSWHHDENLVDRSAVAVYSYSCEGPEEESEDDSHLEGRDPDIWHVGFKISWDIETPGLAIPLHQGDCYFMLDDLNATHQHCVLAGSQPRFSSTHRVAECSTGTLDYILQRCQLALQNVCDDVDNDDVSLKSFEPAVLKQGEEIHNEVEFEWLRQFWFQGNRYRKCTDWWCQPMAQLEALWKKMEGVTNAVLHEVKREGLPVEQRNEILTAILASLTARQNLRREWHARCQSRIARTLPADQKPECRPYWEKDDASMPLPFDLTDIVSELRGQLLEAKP

What was measured:
Assay in all cases: biochemical
Settings in all cases: read-out: Fold change versus DMSO control
ALKBH3 = molecular target: T1, ALKBH3 (Homo sapiens, UniProt Q96Q83)
T1 sequence (Q96Q83 1-286): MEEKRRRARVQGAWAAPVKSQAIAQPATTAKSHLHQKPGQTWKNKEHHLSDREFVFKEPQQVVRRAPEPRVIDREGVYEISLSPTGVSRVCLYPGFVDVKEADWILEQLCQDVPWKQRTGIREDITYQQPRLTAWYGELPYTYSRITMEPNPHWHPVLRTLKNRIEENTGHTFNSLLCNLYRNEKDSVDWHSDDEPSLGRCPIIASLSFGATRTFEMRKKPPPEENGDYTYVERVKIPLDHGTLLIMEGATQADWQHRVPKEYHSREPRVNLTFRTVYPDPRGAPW
Procedure: (§1) Cells were harvested by centrifugation, washed once with 1 x PBS buffer (Invitrogen, #14190-094) and cell pellets were frozen in liquid nitrogen and subsequently stored at -80°C.
(§2) Cells were homogenized in a Potter S homogenizer in lysis buffer: 50 mM Tris-HCl, 0.8% NP40, 5% glycerol, 150 mM NaCl, 1.5 mM MgCl2, 25 mM NaF, 1 mM sodium vanadate, 1 mM DTT, pH 7.5. […] The supernatant was transferred again to a fresh 50 ml falcon tube, the protein concentration was determined by a Bradford assay (BioRad) and samples containing 50 mg of protein per aliquot were prepared.

C17ORF101 = molecular target: T2, C17ORF101 (Homo sapiens, UniProt Q6PK18)
T2 sequence (Q6PK18 1-331 isoform Q6PK18-2): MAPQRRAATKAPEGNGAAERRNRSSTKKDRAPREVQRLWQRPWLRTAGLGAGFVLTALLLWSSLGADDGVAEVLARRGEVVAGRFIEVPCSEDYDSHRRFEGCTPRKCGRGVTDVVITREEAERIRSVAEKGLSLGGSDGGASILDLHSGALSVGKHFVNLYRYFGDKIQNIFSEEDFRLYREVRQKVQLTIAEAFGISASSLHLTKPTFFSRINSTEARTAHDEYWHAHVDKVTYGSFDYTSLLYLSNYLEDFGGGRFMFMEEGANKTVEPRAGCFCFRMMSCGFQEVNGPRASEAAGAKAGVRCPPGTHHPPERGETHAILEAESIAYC
Procedure: as §1, §2

FTO = FTO (Homo sapiens, UniProt Q9C0B1)
Procedure: as §1, §2

LEPRE1 = molecular target: T3, LEPRE1 (Homo sapiens, UniProt Q32P28)
T3 sequence (Q32P28 23-736): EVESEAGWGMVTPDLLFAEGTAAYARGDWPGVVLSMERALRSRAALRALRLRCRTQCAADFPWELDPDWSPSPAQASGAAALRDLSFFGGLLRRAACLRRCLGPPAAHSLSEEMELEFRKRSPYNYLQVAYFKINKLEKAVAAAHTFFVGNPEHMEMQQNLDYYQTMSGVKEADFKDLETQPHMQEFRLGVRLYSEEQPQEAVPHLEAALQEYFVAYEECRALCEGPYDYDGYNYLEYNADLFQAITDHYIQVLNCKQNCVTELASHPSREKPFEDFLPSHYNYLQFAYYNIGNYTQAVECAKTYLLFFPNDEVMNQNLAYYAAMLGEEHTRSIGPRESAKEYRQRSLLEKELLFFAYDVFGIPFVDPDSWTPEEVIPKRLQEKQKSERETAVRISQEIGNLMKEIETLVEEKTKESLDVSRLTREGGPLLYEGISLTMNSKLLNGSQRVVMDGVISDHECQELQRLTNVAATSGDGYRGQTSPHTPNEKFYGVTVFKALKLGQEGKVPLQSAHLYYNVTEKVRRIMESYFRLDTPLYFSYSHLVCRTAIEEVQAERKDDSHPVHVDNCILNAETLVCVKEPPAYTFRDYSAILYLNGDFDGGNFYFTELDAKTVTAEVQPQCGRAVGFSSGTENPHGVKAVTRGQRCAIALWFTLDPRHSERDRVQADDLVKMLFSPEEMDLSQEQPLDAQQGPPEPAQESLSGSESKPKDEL
Procedure: as §1, §2

PLOD3 = molecular target: T4, PLOD3 (Homo sapiens, UniProt O60568)
T4 sequence (O60568 25-738): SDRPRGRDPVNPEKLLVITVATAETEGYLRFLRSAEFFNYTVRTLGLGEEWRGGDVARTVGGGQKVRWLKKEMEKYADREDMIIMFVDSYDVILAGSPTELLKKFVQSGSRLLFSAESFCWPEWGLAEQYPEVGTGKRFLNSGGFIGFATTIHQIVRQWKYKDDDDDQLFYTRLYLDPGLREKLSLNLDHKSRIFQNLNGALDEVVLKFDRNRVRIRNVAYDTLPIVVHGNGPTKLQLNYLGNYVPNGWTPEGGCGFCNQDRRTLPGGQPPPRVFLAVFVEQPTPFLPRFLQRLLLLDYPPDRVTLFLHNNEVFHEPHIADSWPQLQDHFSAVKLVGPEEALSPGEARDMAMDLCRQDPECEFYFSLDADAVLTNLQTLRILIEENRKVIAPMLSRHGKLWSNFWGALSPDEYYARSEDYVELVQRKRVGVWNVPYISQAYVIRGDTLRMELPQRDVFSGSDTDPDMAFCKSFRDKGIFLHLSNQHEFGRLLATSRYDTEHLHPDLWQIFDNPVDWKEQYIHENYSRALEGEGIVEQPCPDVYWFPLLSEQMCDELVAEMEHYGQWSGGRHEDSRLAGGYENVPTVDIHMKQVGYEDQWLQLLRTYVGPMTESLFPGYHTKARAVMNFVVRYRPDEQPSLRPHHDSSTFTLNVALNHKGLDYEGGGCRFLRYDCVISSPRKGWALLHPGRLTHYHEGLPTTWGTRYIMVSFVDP
Procedure: as §1, §2

O=C(O)CNC(=O)C1C(=O)OC2(CCNCC2)OC1=O [compound A, 2-(2,4-dioxo-1,5-dioxa-9-azaspiro[5.5]undecane-3-carboxamido)acetic acid hydrochloride] showed a remaining activity at 200 µM (ALKBH3) of 45%, a remaining activity at 200 µM (C17ORF101) of 42% and a remaining activity at 200 µM (FTO) of 25%. It also gave a remaining activity at 200 µM (LEPRE1) of 70% and a remaining activity at 200 µM (PLOD3) of 104%.
